{"source": "paper PMC4698308", "about": "“A new amino acid substitution (Ala-205-Phe) in acetolactate synthase (ALS) confers broad spectrum resistance to ALS-inhibiting herbicides” (Planta, 2015)", "key": {"[1]": {"system": "recombinant Arabidopsis thaliana ALS variant A205V", "format": "biochemical", "conditions": "IC50 mutant divided by IC50 sensitive ALS; max inhibitor concentration 1.00 × 10^−04 M", "method": "(§1) Effects of SNPs identified in sequencing analysis on ALS activity were studied using A. thaliana. The ALS gene from A. thaliana and derivatives thereof were de novo synthesized and subcloned into pET-24d(+) (Life Technologies. Grand Island, NY, USA) using NcoI and XhoI restriction sites. Protein constructs contained an 85 amino acid N-terminal deletion (chloroplast transit peptide) and the addition of an N-terminal Hexa-histidine tag to facilitate purification.\n(§2) Lysis was performed by at least two passes through a fluidizer, followed by centrifuging at 80000×g for 30 min at 4 °C. […] Fractions containing ALS protein were pooled and stored at −20 °C.\n(§3) Inhibitors, purchased from Sigma as Pestanal standards (Sigma-Aldrich, Deisenhofen, Germany), were dissolved in DMSO and added to the reaction mixture. Inhibitors evaluated included imidazolinone, sulfonylurea, triazolopyrimidines, sulfonylamino-carbonyl- triazolinones, and pyrimidinyl (thio) benzoate herbicides. The reaction mixture was incubated at 30 °C for 60 min and stopped with 70 µl of H2SO4 (3 M). The reaction was then heated to 56 °C for 15 min to convert acetolactate into acetoin. […] For each inhibitor, resistance factors were calculated by dividing IC50 values for mutant and sensitive ALS."}, "[2]": {"system": "recombinant Arabidopsis thaliana ALS variant W574L", "format": "biochemical", "conditions": "IC50 mutant divided by IC50 sensitive ALS; max inhibitor concentration 1.00 × 10^−04 M", "method": "as §1, §2, §3"}}, "data": [{"substance": "Bensulfuron", "values": [{"measurement": "Resistance factor A205V", "setting": "[1]", "result": 54}, {"measurement": "Resistance factor W574L", "setting": "[2]", "result": 642}]}]}
